# In patent US8410165B2, “Aldehyde conjugated flavonoid preparations” (Agency for Science, Technology and Research, priority 2005, dated 2013):
Substance,water solubility,solubility in solvents (various solvents)
PEG-epigallocatechin gallate conjugate [PEG-EGCG],water soluble,–
PEG-oligomeric epigallocatechin gallate [PEG-OEGCG],not water soluble,–
oligomeric epigallocatechin gallate [OEGCG],–,"soluble in good solvents for EGCG, such as DMSO, N,N-dimethylformamide, acetone, ethanol, methanol, tetrahydrohuran and an alkaline aqueous solution except for water"
